Data on one compound can be found in ChEMBL document CHEMBL5108012, “Discovery of 2,5-diphenyl-1,3,4-thiadiazole derivatives as HDAC inhibitors with DNA binding affinity” (Eur J Med Chem, 2022).

The target of this test is T1, Histone deacetylase 8 (Homo sapiens, UniProt Q9BY41).
T1 sequence (Q9BY41 whole entry): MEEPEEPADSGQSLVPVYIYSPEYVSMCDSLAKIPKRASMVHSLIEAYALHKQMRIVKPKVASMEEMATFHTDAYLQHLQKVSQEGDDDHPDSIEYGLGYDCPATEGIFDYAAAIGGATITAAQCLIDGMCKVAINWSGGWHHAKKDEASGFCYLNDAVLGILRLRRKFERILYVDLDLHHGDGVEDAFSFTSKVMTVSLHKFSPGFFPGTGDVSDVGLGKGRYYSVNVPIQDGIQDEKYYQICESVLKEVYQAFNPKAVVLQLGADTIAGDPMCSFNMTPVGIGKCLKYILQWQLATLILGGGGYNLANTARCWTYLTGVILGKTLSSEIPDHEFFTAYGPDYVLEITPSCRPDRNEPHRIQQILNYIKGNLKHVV
In words: Inhibition of HDAC8 in human HeLa cell nuclear extract using Boc-Lys(Ac)-AMC or Boc-Lys(triflouroacetyl)-AMC as substrate incubated for 30 mins and measured by fluorescence assay. It is filed as cell-free.

Turning to `O=C(CCCCCCC(=O)Nc1ccccc1)NO` [VORINOSTAT], the IC50 (as a rule, the point on the concentration scale where inhibition reaches its midpoint) stood at 3.9 µM.
